The values that follow are results of earlier work, collected in PMC4956498 (Planta medica, 2016).

What is called pIC50 is the IC50 on a negative log10 scale, so that one unit is a factor of ten.

pIC50: −log10 of the molar value.

In the first series the test system is HT-29 human colon cancer cell line. To be noted: cited from earlier work.
Take `C=C(C)[C@H]1Cc2c(ccc3c2O[C@@H]2COc4cc(OC)c(OC)cc4[C@@H]2C3=O)O1` [Compound 7, (−)-rotenone]: the “Cytotoxicity toward HT-29 cells (in words)” value was “potent activity”.

On to `COc1cc2c(cc1OC)[C@@H]1C(=O)c3ccc4c(c3O[C@@H]1CO2)C=CC(C)(C)O4` [deguelin, reference compound], for which the “Cytotoxicity toward HT-29 cells (in words)” value is “inactive”. Turning to `COc1cc2c(cc1OC)-c1c(oc3c4c(ccc3c1=O)OC(C)(C)C=C4)CO2` [dehydrodeguelin, reference compound], the “Cytotoxicity toward HT-29 cells (in words)” value is “inactive”. Turning to `COc1cc2c(cc1OC)[C@]1(O)C(=O)c3ccc4c(c3O[C@@H]1CO2)C=CC(C)(C)O4` [tephrosin, reference compound], the “Cytotoxicity toward HT-29 cells (in words)” value is “inactive”. As to (−)-2,3-dehydrorotenone [Compound 10], the “Cytotoxicity toward HT-29 cells (in words)” value is “inactive”.

As for (−)-3-hydroxyrotenone [Compound 6], the “Cytotoxicity toward HT-29 cells (in words)” value is “potent activity”. As to “(−)-13-homo-13-oxa-2,3-dehydrorotenone [Compound 9]”, the “Cytotoxicity toward HT-29 cells (in words)” value is “inactive”.

Still in this series, the particulars now being: read-out: Cytotoxicity IC50 against HT-29 cells; cited from earlier work.
In the case of “3-hydroxyisomillettone [reference compound]”, the pIC50 was less than 4.70.
